Assay results: PMC7048932, “Examining sterically demanding lysine analogs for histone lysine methyltransferase catalysis” (Scientific Reports, 2020)

Legend:
Assay type in all cases: biochemical
GLP [1] = target: T1, GLP (Homo sapiens, UniProt Q9H9B1); assay: MALDI-TOF MS methylation assay of H3K9 peptides with GLP; conditions: peptide 100 µM, GLP 10 µM, SAM 1 mM, 5 h, 37 °C
T1 construct: His6 (N); made in house; host or cells: E. coli BL21 (DE3)pLysS-rosetta
T1 sequence (Q9H9B1 1-1298): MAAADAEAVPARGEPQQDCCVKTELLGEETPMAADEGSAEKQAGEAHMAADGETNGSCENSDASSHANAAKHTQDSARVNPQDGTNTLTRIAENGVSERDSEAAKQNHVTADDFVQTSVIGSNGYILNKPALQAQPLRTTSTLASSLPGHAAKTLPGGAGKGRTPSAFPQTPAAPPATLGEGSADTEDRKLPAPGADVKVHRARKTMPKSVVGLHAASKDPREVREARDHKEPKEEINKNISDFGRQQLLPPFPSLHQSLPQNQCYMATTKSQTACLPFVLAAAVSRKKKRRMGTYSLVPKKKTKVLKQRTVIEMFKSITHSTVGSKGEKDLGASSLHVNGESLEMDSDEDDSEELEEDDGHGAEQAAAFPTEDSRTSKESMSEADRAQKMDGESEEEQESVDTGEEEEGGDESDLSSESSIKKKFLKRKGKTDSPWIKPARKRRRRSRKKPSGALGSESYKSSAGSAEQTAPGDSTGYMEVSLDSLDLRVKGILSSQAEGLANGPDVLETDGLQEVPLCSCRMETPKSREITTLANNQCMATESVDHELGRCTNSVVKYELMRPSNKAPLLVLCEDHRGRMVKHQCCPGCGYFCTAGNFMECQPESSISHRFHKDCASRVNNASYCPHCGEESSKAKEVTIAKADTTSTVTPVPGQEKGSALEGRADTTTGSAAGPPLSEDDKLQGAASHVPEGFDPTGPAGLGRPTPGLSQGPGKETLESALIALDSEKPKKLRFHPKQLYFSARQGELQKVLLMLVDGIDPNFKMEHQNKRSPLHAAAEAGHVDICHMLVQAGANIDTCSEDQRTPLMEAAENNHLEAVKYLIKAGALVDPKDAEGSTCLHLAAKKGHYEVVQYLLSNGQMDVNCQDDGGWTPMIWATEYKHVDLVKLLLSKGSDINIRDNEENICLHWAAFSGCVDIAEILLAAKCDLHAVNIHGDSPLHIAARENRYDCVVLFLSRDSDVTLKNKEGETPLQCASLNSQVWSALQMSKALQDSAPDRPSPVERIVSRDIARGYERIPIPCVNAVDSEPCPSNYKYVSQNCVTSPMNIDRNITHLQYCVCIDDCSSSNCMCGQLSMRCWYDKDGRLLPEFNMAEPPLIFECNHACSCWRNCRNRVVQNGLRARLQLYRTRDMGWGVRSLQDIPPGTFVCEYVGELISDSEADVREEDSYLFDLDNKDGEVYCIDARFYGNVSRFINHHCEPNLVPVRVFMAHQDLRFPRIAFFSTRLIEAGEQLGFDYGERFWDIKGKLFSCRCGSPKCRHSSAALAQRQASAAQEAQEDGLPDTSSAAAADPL
Experimental: MALDI-MS methyltransferases activity experiments were performed using a Bruker instrument in the reflectron positive mode. For regular methyltransferase standard conditions experiment which carried out in 30 µL total volume, the mixture contains peptide (100 µM), SAM (200 µM), SETD8 or SETD7 (2 µM), in assay buffer 50 mM Tris at optimal pH 8.0. In case of G9a and GLP, similar conditions were used, except (500 µM) of SAM was added to the reaction mixture. […] A 5 µL aliquot of the solution was mixed with 5 µL of MeOH, after which 5 µL of this mixture was mixed with 5 µL of α-cyano-4-hydroxycinamic acid matrix (CHCA, 5 mg/mL in 125:125 µL acetonitrile/water). The spots were placed on a stainless steel MALDI plate (MS 96 target ground steel BC of Bruker, Germany). The mass corresponding to one monomethylation observed as +14 Da, dimethylation observed as +28 Da and trimethylation observed as +42 Da. The enzymatic activity was determined by taking the peak areas of each methylation state, including all isotopes and adducts, and was annotated using FlexAnalysis software (Bruker Daltonics, Germany). […] Methylated peptide substrates were repeated five times and the unmethylated substrates were triplicated. Sequences of the examined peptides are given in (Supplementary Table 1).

G9a = target: T2, G9a (Homo sapiens, UniProt Q96KQ7); assay: MALDI-TOF MS methylation assay of H3K9 peptides with G9a; conditions: peptide 100 µM, G9a 2 µM, SAM 500 µM, 1 h, 37 °C
T2 construct: His6 (N); made in house; host or cells: E. coli BL21 (DE3)pLysS-rosetta
T2 sequence (Q96KQ7 1-1210): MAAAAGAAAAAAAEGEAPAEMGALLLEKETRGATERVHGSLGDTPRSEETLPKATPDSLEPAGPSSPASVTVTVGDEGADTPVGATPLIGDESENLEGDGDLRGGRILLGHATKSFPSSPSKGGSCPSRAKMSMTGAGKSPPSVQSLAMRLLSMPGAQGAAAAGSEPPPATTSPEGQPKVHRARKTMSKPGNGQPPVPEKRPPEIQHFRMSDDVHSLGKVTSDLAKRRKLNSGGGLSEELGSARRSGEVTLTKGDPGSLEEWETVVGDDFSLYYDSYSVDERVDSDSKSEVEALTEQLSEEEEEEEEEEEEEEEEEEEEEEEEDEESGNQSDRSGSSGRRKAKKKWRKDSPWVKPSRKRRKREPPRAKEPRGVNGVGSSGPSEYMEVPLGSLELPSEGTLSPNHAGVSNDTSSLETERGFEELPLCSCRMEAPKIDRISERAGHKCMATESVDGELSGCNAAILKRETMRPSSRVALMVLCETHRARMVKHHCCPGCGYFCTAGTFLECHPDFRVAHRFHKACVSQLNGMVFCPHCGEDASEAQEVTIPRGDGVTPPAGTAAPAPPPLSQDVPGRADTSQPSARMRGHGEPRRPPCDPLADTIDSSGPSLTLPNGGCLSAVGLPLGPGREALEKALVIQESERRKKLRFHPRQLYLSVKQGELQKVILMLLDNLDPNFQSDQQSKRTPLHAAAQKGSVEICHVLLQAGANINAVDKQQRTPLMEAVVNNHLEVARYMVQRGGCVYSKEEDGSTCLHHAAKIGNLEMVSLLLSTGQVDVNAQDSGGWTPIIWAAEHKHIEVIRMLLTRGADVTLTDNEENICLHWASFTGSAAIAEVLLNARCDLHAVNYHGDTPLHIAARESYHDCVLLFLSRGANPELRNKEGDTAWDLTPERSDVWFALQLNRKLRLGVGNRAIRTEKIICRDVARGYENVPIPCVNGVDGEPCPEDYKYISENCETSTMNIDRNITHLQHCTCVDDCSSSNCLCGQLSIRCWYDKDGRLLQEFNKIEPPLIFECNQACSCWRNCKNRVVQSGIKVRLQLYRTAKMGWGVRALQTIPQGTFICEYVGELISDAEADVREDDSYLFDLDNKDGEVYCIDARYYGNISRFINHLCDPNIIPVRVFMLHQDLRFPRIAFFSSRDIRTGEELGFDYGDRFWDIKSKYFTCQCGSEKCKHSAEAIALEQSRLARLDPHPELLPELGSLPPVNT
Experimental: MALDI-MS methyltransferases activity experiments were performed using a Bruker instrument in the reflectron positive mode. For regular methyltransferase standard conditions experiment which carried out in 30 µL total volume, the mixture contains peptide (100 µM), SAM (200 µM), SETD8 or SETD7 (2 µM), in assay buffer 50 mM Tris at optimal pH 8.0. In case of G9a and GLP, similar conditions were used, except (500 µM) of SAM was added to the reaction mixture. Samples were incubated in an Eppendorf vial 1.5 mL using thermomixer for 1 h at 37 °C. A 5 µL aliquot of the solution was mixed with 5 µL of MeOH, after which 5 µL of this mixture was mixed with 5 µL of α-cyano-4-hydroxycinamic acid matrix (CHCA, 5 mg/mL in 125:125 µL acetonitrile/water). The spots were placed on a stainless steel MALDI plate (MS 96 target ground steel BC of Bruker, Germany). The mass corresponding to one monomethylation observed as +14 Da, dimethylation observed as +28 Da and trimethylation observed as +42 Da. The enzymatic activity was determined by taking the peak areas of each methylation state, including all isotopes and adducts, and was annotated using FlexAnalysis software (Bruker Daltonics, Germany). […] Methylated peptide substrates were repeated five times and the unmethylated substrates were triplicated. Sequences of the examined peptides are given in (Supplementary Table 1).

GLP [2] = target: T1, GLP; assay: NMR assay of GLP-catalyzed methylation of H3K9 peptides; conditions: peptide 400 µM, GLP 8 µM, SAM 2 mM, 50 mM Tris-d11.HCl pD 8.0, 1 h, 37 °C

Substance: ARTKQTARK^9STGGKA [H3K9, reference compound]
- GLP-catalyzed methylation, result in words, increased GLP/SAM (GLP [1]): major trimethylation
- G9a-catalyzed methylation, result in words (G9a): trimethylation
- GLP-catalyzed methylation by 1H NMR / 1H-13C HSQC, result in words (GLP [2]): formation of the trimethylated species
